Data as given in ChEMBL document CHEMBL1800071, “Switching reversibility to irreversibility in glycogen synthase kinase 3 inhibitors: clues for specific design of new compounds” (J Med Chem, 2011).

Target: Muscarinic acetylcholine receptor (Rattus norvegicus) (UniProt P08482+P08483+P08485+P08911+P10980)
Test: Displacement of [3H]-QNB from muscarinic receptor in rat cerebral cortex at 10 uM
Assay type: tissue-based

Work on Cc1ccc(C(=O)CBr)cc1 yielded an inhibition of 13%.
